Compounds with a hit are over-represented: about 0.92% of the library has one in this group of screens.
KinaseGlo FLuc = Kinase-Glo luciferase inhibition (counter-screen); Kinase-Glo luciferase, ATP luminescence, 8 min; Potency, µM (highest dose often 38.3 µM), without a hit: at the highest dose activity change, negative = inhibition, most hits filed as inhibitors; AID 1379; 200,000 tested, 0.28% active; Q27757; also: potency is read from the fitted curve at half-maximal effect; % is scaled to controls: 0 for no effect and ±100 for the full control effect; nearly all actives have a fitted effect of over 60% in size
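Compound is pinned into ATP-containing buffer (10 uM ATP, imidazole pH 7.2, 7 mM MgCl2). Kinase-Glo luciferase reagent is then added. Light output is recorded following an 8-min room-temperature incubation.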
RXFP1 agonist = agonists of human relaxin receptor RXFP1. Q9HBX9. HEK293T-RXFP1 cAMP TR-FRET, 30 min; response scale: percent of porcine relaxin response, buffer zero. Potency, µM (series often up to 57.5 µM), inactives show at the highest dose activation, hits mostly activators. 370,000 tested, 0.3% active. AID 2676; also: potency is read from the fitted curve at half-maximal effect; % is scaled to controls: 0 for no effect and ±100 for the full control effect; nearly all actives have a fitted effect of over 60% in size
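HEK293T cells stably expressing RXFP1 were pretreated with the PDE4 inhibitor Ro 20174, exposed to compounds for 30 min at 37C, lysed, and cAMP was read by TR-FRET. Data normalized to buffer (basal) and 29 nM porcine relaxin (100%).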
PKM2 act = increases activity of human pyruvate kinase M2 | P14618 | purified PKM2, Kinase-Glo ATP luminescence, activation; response scale: 0% is enzyme alone, no compound | Potency, µM (top dose mostly 57.5 µM), without a hit: at the highest dose activation, hits mostly activators | 260,000 tested, 0.34% active; also: potency is read from the fitted curve at half-maximal effect; % is scaled to controls: 0 for no effect and ±100 for the full control effect; nearly all actives have a fitted effect of over 55% in size
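Purified hPK-M2 (>95%) run at intermediate activity with 0.1 mM ADP and 0.5 mM PEP in 50 mM imidazole pH 7.2, KCl, MgCl2; 1 h room temperature. ATP formed read by Kinase-Glo luminescence; normalized to uninhibited and no-enzyme controls.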
RXFP1 antagonist = blocks the human relaxin receptor RXFP1; 350,000 tested, 0.59% active; Q9HBX9; HEK293-RXFP1, relaxin-stimulated cAMP HTRF, 30 min; stronger effect = lower value; activity change, negative = inhibition, % at 57.5 µM;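 active = activity change of -60% or lower, but not beyond a set lower limit; inconclusive = change between -60% and -40%, or beyond the set limit; inactive = change above -40%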; also: % is scaled to controls: 0 for no effect and ±100 for the full control effect
GALK inh = galactokinase (human) inhibition; 270,000 tested, 0.007% active; Potency, µM (top dose mostly 57.5 µM), without a hit: top-dose activity change, negative = inhibition, usual class: inhibitors; P51570; Purified GALK, Kinase-Glo residual ATP luminescence; also: potency is read from the fitted curve at half-maximal effect; % is scaled to controls: 0 for no effect and ±100 for the full control effect
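Compounds were pin-transferred into ATP buffer (35 uM final), then GALK plus galactose (5 nM, 100 uM final) was added. After 1 h at room temperature, Kinase-Glo Plus was added and luminescence read after 10 min.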
miR-21 reporter = miR-21 reporter, rising signal. HeLa miR-21 FLuc reporter, luciferase, 48 h. Potency, µM (highest dose often 38.3 µM), for the others: at the highest dose reporter change, positive = more light. 340,000 tested, under 10 active. AID 2288; active = well fitted rising curve with a large enough effect; inconclusive = small, poorly fitted or top-dose-only effect; inactive = no such curve, though single readings can be large or run the other way;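 further: % of control where 0% means no effect; miR-21 action dims this reporter so a rising signal means less miR-21 action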
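Luminescence from a firefly luciferase reporter carrying a miR-21 binding site downstream, stably expressed under a CMV promoter in HeLa cells that make miR-21 endogenously, reports miRNA modulation after 48 h compound exposure up to approximately 40uM final.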
* hit, by the source's call; [ ] = another dose, or the depositor's remark. Unless noted, calls follow the shape of the dose curve; as a rule, active = well fitted curve in the direction sought with a large enough effect; inconclusive = small, poorly fitted or top-dose-only effect, or another doubt; inactive = no such curve, though single readings can be large; an effect the other way counts as inactive or inconclusive.

COc1cccc(-c2cc(C(=O)NCc3ccco3)c3ccccc3n2)c1 was read as RXFP1 agonist -2%, PKM2 act 3%, RXFP1 antagonist -86*, GALK inh 2% and miR-21 reporter 2%.
Screening COc1ccc(C)cc1S(=O)(=O)N1CCOCC1 returned KinaseGlo FLuc 2%, RXFP1 agonist 2%, PKM2 act 10%, RXFP1 antagonist 5, GALK inh 3% and miR-21 reporter 1%.
Screening O=C(O)C1CC(=O)N(CCC23CC4CC(CC(C4)C2)C3)C(=Nc2ccccc2)S1 (stereo not drawn) returned KinaseGlo FLuc 2%.
O=C1S/C(=C\C=C\c2ccco2)C(=O)N1c1ccc(O)cc1 was read as KinaseGlo FLuc -1%, RXFP1 agonist 0%, PKM2 act 16%, RXFP1 antagonist -63*, GALK inh -2% and miR-21 reporter -36%.
O=C1S/C(=C\C=C\c2ccco2)C(=O)N1c1ccccc1 was read as KinaseGlo FLuc 1%, RXFP1 agonist 0%, PKM2 act 9%, RXFP1 antagonist inconclusive, GALK inh 1% and miR-21 reporter -56%.
Screening Cc1c(F)c(N2CCNC(C)C2)cc2c1c(=O)c(C(=O)O)cn2C1CC1 (stereo not drawn) returned RXFP1 antagonist -7.
`COC(=O)Cc1ccc2sc(-c3ccccc3)nc2c1` gave KinaseGlo FLuc 13µM*, RXFP1 agonist -1%, PKM2 act -40%, RXFP1 antagonist 9, GALK inh 3% and miR-21 reporter -41%.
CCn1cc2nc(SCC(=O)Nc3ccccc3C(F)(F)F)n(Cc3ccc(C)cc3)c(=O)c2n1 was read as RXFP1 agonist -4% and miR-21 reporter 21%.
For O=C(c1cccc(Cl)c1)N1c2ncnn2C2(CCCCC2)[C@@H]2CCCC[C@@H]21 the results were RXFP1 agonist -3%, RXFP1 antagonist -61* and miR-21 reporter 26%.
For COc1cccc(C(=O)N2c3nc(-c4ccco4)nn3C3(CCCCC3)[C@@H]3CCCC[C@@H]32)c1 the results were RXFP1 agonist 4%, RXFP1 antagonist -65* and miR-21 reporter inconclusive.
Screening C[C@@H](O)CCC[C@H](O)/C=C/[C@H]1[C@H](O)CC(=O)[C@@H]1C/C=C\CCCC(=O)O returned KinaseGlo FLuc 1%.
Cn1c2c(c(=O)n(C)c1=O)C(C(F)(F)F)(C(F)(F)F)N=C(CCC1CCCCC1)N2 was read as KinaseGlo FLuc 0%, RXFP1 agonist 1%, PKM2 act 11%, RXFP1 antagonist -65*, GALK inh 1% and miR-21 reporter inconclusive.

Three entries from above, arranged by count of non-hydrogen atoms, low to high:
For O=C(c1cccc(Cl)c1)N1c2ncnn2C2(CCCCC2)[C@@H]2CCCC[C@@H]21 the results were RXFP1 agonist -3%, RXFP1 antagonist -61* and miR-21 reporter 26%.
Screening O=C(O)C1CC(=O)N(CCC23CC4CC(CC(C4)C2)C3)C(=Nc2ccccc2)S1 (stereo not drawn) returned KinaseGlo FLuc 2%.
For COc1cccc(C(=O)N2c3nc(-c4ccco4)nn3C3(CCCCC3)[C@@H]3CCCC[C@@H]32)c1 the results were RXFP1 agonist 4%, RXFP1 antagonist -65* and miR-21 reporter inconclusive.

Other structures
`Cn1c(CNC(=O)c2ccco2)nnc1SCC(=O)N1CCN(c2ccccc2F)CC1` gave RXFP1 agonist -2%, RXFP1 antagonist -94*, GALK inh 0% and miR-21 reporter 1%.
Screening Cn1c(Cc2ccccc2)nnc1SCC(=O)N1CCN(c2ccccc2)CC1 returned KinaseGlo FLuc 3%, RXFP1 agonist 0%, PKM2 act 13µM*, RXFP1 antagonist -1, GALK inh -3% and miR-21 reporter 0%.
Screening Cn1c(CNC(=O)c2ccco2)nnc1SCC(=O)c1ccccc1 returned KinaseGlo FLuc -1%, RXFP1 agonist 0%, PKM2 act -10%, RXFP1 antagonist -7, GALK inh -1% and miR-21 reporter 2%.
Screening CC#CCN1c2ccccc2[C@]23C[C@@H](C(=O)OC)N(C(=O)COCc4ccccc4)C2=NC(C(=O)OC)=C(C(=O)OC)[C@H]13 returned KinaseGlo FLuc -1%[7.66 µM] and PKM2 act -3%[11.5 µM].
Screening COC(=O)c1c(NC(=O)CC2SC(N)=NC2=O)sc(C)c1C (stereo not drawn) returned KinaseGlo FLuc 1%, RXFP1 agonist -1%, PKM2 act 6%, RXFP1 antagonist -7, GALK inh 3% and miR-21 reporter -1%.
Screening O=C(NC[C@@H]1CCCCN1)c1cc(OCC(F)(F)F)ccc1OCC(F)(F)F returned KinaseGlo FLuc 3%[17.1 µM].
Screening C=CCn1c(=O)[nH]c2cc(C(=O)N3CC=C(c4ccccc4)CC3)ccc2c1=O returned KinaseGlo FLuc 1%, RXFP1 agonist 1%, PKM2 act -3%, RXFP1 antagonist -72*, GALK inh -1% and miR-21 reporter 10%.
Screening Cc1ccn(S(=O)(=O)c2ccc3oc(=O)ccc3c2)n1 returned RXFP1 agonist 0%, PKM2 act 10µM*, RXFP1 antagonist -14, GALK inh -1% and miR-21 reporter -3%.
`Cc1cc(C)n(S(=O)(=O)c2ccc3oc(=O)ccc3c2)n1` gave RXFP1 agonist 2%, RXFP1 antagonist -6, GALK inh -2% and miR-21 reporter -2%.
For COC(=O)N[C@@H](CCc1ccccc1)[C@]1(C(=O)OC)CCCC1=O the results were KinaseGlo FLuc 0%.
Screening Cc1ccccc1C(=O)Nc1ccc2c(c1)OCCO2 returned RXFP1 agonist 0%, PKM2 act 3%, RXFP1 antagonist 6, GALK inh 6% and miR-21 reporter 0%.
Cc1cc(C(=O)Nc2ccc3c(c2)OCCO3)c(C)o1 was read as KinaseGlo FLuc -5%, RXFP1 agonist -1%, PKM2 act 0%, RXFP1 antagonist -5, GALK inh -4% and miR-21 reporter -46%.
`Cc1nn(C)c(C(=O)Nc2ccc3c(c2)OCO3)c1[N+](=O)[O-]` gave RXFP1 agonist 4%, RXFP1 antagonist -2, GALK inh 4% and miR-21 reporter -17%.
`O=C(Nc1ccc2c(c1)OCCO2)c1coc2ccccc2c1=O` gave KinaseGlo FLuc 8.9µM*, RXFP1 agonist 0%, PKM2 act -25%, RXFP1 antagonist -1, GALK inh 1% and miR-21 reporter -11%.
Screening Cc1occc1C(=O)Nc1ccc2c(c1)CCC2 returned KinaseGlo FLuc 13µM*, RXFP1 agonist 0%, PKM2 act -35%, RXFP1 antagonist 7, GALK inh 5% and miR-21 reporter -49%.
For Cc1occc1C(=O)Nc1ccc2c(c1)OCCO2 the results were KinaseGlo FLuc 7.1µM*, RXFP1 agonist 2%, PKM2 act -53%, RXFP1 antagonist 3, GALK inh 9% and miR-21 reporter -42%.
For O=C(Nc1ccc2c(c1)CCC2)c1ccccc1F the results were KinaseGlo FLuc -17%, RXFP1 agonist 0%, PKM2 act -9%, GALK inh 2% and miR-21 reporter -41%.

Screening data: PubChem BioAssay, National Center for Advancing Translational Sciences (NCATS)
